Measured values as given in ChEMBL document CHEMBL4007405 (J Med Chem, 2017).

The chains behind the UniProt entries cited, without tags or fusion partners. Residues count along the entry.
UniProt P78536, 215-824 limits assumed: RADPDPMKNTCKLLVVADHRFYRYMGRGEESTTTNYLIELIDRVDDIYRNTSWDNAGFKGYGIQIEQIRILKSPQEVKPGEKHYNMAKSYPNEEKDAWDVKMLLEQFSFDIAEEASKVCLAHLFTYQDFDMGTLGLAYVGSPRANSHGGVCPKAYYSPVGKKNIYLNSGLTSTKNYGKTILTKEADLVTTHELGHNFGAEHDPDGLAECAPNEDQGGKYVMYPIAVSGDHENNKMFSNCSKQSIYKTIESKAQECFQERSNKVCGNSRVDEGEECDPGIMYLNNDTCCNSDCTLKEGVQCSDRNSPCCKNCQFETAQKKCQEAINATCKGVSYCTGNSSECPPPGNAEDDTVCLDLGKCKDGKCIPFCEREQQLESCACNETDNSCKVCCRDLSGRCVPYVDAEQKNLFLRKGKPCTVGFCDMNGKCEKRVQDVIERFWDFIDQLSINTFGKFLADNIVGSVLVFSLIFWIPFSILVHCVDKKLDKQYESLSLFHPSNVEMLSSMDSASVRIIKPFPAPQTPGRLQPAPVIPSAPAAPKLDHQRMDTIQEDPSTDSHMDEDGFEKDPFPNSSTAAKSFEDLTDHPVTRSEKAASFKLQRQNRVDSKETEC

Columns and labels:
[1] = molecular target: T1, Disintegrin and metalloproteinase domain-containing protein 17 (Homo sapiens, UniProt P78536)
[2] = molecular target: T1, Disintegrin and metalloproteinase domain-containing protein 17; remark: listed apart in the source

SMILES	IC50 [1] [nM]	other results
CC[C@H](C)[C@@H]1NC(=O)[C@@H]2CSSC[C@H](NC(=O)[C@H](CCCNC(=N)N)NC(=O)[C@@H]3CSSC[C@H](NC1=O)C(=O)N[C@@H]([C@@H](C)O)C(=O)N[C@@H](CCCNC(=N)N)C(=O)NCC(=O)N[C@@H](Cc1ccccc1)C(=O)N3)C(=O)N[C@@H](Cc1c[nH]c3ccccc13)C(=O)N[C@H]1CSSC[C@H](NC(=O)[C@H](Cc3c[nH]c4ccccc34)NC(=O)[C@H](CCCNC(=N)N)NC(=O)[C@H](CCCNC(=N)N)NC(=O)[C@H](CCCNC(=N)N)NC1=O)C(=O)N[C@@H](CCCNC(=N)N)C(=O)N2	750	
CC[C@H](C)[C@@H]1NC(=O)[C@@H]2CSSC[C@H](NC(=O)[C@H](CCCNC(=N)N)NC(=O)[C@@H]3CSSC[C@H](NC1=O)C(=O)N[C@@H]([C@@H](C)O)C(=O)N[C@@H](CCCNC(=N)N)C(=O)NCC(=O)N[C@@H](Cc1ccccc1)C(=O)N3)C(=O)N[C@@H](CC(C)C)C(=O)N[C@H]1CSSC[C@H](NC(=O)[C@H](C(C)C)NC(=O)CNC(=O)[C@H](CCCNC(=N)N)NC(=O)[C@H](CCCNC(=N)N)NC1=O)C(=O)N[C@@H](CCCNC(=N)N)C(=O)N2	4450	
CC[C@H](C)[C@@H]1NC(=O)[C@@H]2CSSC[C@H](NC(=O)[C@H](CCCNC(=N)N)NC(=O)[C@@H]3CSSC[C@H](NC1=O)C(=O)N[C@@H]([C@@H](C)O)C(=O)N[C@@H](CCCNC(=N)N)C(=O)NCC(=O)N[C@@H](Cc1ccccc1)C(=O)N3)C(=O)N[C@@H](CC(C)C)C(=O)N[C@H]1CSSC[C@H](NC(=O)[C@H](Cc3c[nH]c4ccccc34)NC(=O)[C@H](CCCNC(=N)N)NC(=O)[C@H](CCCNC(=N)N)NC(=O)[C@H](CCCNC(=N)N)NC1=O)C(=O)N[C@@H](CCCNC(=N)N)C(=O)N2	672	
N=C(N)NCCC[C@@H]1NC(=O)[C@H](CCCNC(=N)N)NC(=O)[C@@H]2CSSC[C@H](NC(=O)[C@H](Cc3c[nH]c4ccccc34)NC(=O)[C@H](CCCNC(=N)N)NC1=O)C(=O)N[C@@H](CCCNC(=N)N)C(=O)N[C@H]1CSSC[C@H](NC(=O)[C@H](CCCNC(=N)N)NC(=O)[C@@H]3CSSC[C@H](NC(=O)[C@H](Cc4c[nH]c5ccccc45)NC1=O)C(=O)N[C@@H](CCCNC(=N)N)C(=O)N[C@@H](CCCNC(=N)N)C(=O)N[C@@H](CCCNC(=N)N)C(=O)N[C@@H](Cc1c[nH]c4ccccc14)C(=O)N3)C(=O)N[C@@H](Cc1c[nH]c3ccccc13)C(=O)N2		Ki [1]: 1200 nM
C[C@@H](O)[C@@H]1NC(=O)[C@@H]2CSSC[C@H](NC(=O)[C@H](Cc3ccccc3)NC(=O)CNC(=O)[C@H](CCCNC(=N)N)NC1=O)C(=O)N[C@@H](CCCNC(=N)N)C(=O)N[C@H]1CSSC[C@H](NC(=O)[C@H](CCCNC(=N)N)NC(=O)[C@@H]3CSSC[C@H](NC(=O)[C@H](Cc4c[nH]c5ccccc45)NC1=O)C(=O)N[C@@H](CCCNC(=N)N)C(=O)N[C@@H](CCCNC(=N)N)C(=O)N[C@@H](CCCNC(=N)N)C(=O)N[C@@H](Cc1c[nH]c4ccccc14)C(=O)N3)C(=O)N[C@@H](Cc1c[nH]c3ccccc13)C(=O)N2		IC50 [2]: ≥ 10000 nM
